Assay results: ChEMBL document CHEMBL5537131, “Discovery of 4-aminophenylacetamide derivatives as intestine-specific farnesoid X receptor antagonists for the potential treatment of nonalcoholic steatohepatitis” (Eur J Med Chem, 2024)
Calls of active or inactive are those of the source. No cut-off for these calls is given here.

Experiments:
Mus musculus = assay: Anti-NASH activity in HFD-induced nonalcoholic steatohepatitis C57BL/6J mouse model assessed as reduction in total cholesterol level in liver at 50 mg/kg, po administered daily for 4 weeks; assay type: functional, organism-based
[1] = target: T1, Peroxisome proliferator-activated receptor delta (Homo sapiens) (UniProt Q03181); assay: Antagonist activity against PPARbeta (unknown origin) by dual-luciferase reporter gene assay
T1 sequence (whole entry): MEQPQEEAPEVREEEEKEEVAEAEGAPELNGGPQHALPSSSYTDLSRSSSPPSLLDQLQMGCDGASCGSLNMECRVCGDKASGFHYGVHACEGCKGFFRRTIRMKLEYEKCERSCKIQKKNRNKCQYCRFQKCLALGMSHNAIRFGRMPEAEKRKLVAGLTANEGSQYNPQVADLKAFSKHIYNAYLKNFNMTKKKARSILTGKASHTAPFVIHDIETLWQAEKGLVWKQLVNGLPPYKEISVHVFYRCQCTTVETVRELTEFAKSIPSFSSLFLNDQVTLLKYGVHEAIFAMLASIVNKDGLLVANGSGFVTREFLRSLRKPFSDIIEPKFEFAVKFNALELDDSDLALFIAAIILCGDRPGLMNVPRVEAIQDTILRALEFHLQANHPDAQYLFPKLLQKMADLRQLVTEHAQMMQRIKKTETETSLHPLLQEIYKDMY

C[C@H](CCC(=O)NCCS(=O)(=O)O)[C@H]1CC[C@H]2[C@@H]3[C@@H](O)C[C@@H]4C[C@H](O)CC[C@]4(C)[C@H]3CC[C@]12C
Activity (Mus musculus): Active

Cc1cccc(CN(C(=O)C2CCCC2)c2ccc(CC(=O)NCc3ccc4c(c3)OCO4)cc2)c1
Activity [1]: inactive
